Curated experimental data: melting point values

Source: data files of OPERA 2.9 (Mansouri et al.), github.com/kmansouri/OPERA.

The melting point is given in degrees Celsius.

SMILES	mp (°C)
CCN1CCN(c2ccccc2N)CC1	41
CC(=O)Nc1c2sscc-2n(C)c1=O	274.5
CCOP(=O)(CN(CCO)CCO)OCC	-43
CC(=O)CCc1ccc2c(c1)OCO2	53
C/[N+]([O-])=N/CO[C@@H]1O[C@H](CO)[C@@H](O)[C@H](O)[C@H]1O	154
Nc1nnc(N)s1	193
C=CCc1cc(C(C)(C)c2ccc(O)c(CC=C)c2)ccc1O	15
CCC1C(=O)NC(=O)NC1=O	191
CC(=O)NNC(=O)CCl	158
CCC(C)OP(=S)([S-])OCCCCCC(C)C.CCC(C)OP(=S)([S-])OCCCCCC(C)C.[Zn+2] (stereo not drawn)	2.42
C=CCNC(=O)NC(=O)CCl	114
Nc1ccc2c(c1)oc1ccccc12	90
O=C(O)C(Br)C(Br)C(=O)O (stereo not drawn)	167
Clc1cc2oc3c(Cl)c(Cl)c(Cl)c(Cl)c3c2cc1Cl	226
CC(=O)C=Cc1ccc2c(c1)OCO2	111
Nc1nc(N)nc(CCl)n1	222
CCC1NC(=O)C2C(Cl)C(Cl)CN2C(=O)C(CO)NC(=O)CC(c2ccccc2)NC(=O)C(CO)NC1=O (stereo not drawn)	251
CC(C)CC(C)OP(=S)([S-])OC(C)CC(C)C.CC(C)CC(C)OP(=S)([S-])OC(C)CC(C)C.[Zn+2] (stereo not drawn)	-12
CC(Br)C(=O)c1ccc(Cl)cc1 (stereo not drawn)	69
Cc1cccc(NC(=O)CCl)c1	129
CS(=O)(=O)O.NC(=O)[C@@H]1C[C@@H]2C[C@@H]2N1	194.5
NS(=O)(=O)C(F)(F)C(F)(F)C(F)(F)C(F)(F)C(F)(F)C(F)(F)C(F)(F)C(F)(F)F	151.5
Cc1ccc(C)c(C(=O)CCl)c1	29
NC(=O)c1ccc(CCl)cc1	179
CC(C)(C)NC(=O)CCl	76
Cn1sc(Cl)cc1=O	54.5
O=C1NC(=O)C(c2ccccc2)(c2ccccc2)C(=O)N1	288
O=C([O-])C(F)(F)OC(F)(F)C(F)(F)OC(F)(F)C(F)(F)F.[NH4+]	95.8
CCCCC(CC)COP(=S)([S-])OCC(C)C.CCCCC(CC)COP(=S)([S-])OCC(C)C.[Zn+2] (stereo not drawn)	-10.15
C=C(Cl)CN=C=S	-56.5
c1cc(N(CC2CO2)CC2CO2)ccc1Cc1ccc(N(CC2CO2)CC2CO2)cc1 (stereo not drawn)	-13.2
Clc1ccc(C(c2ccccc2Cl)C(Cl)(Cl)Cl)cc1 (stereo not drawn)	74
Cc1nc2ccccc2c(=O)n1-c1ccc(Br)cc1	177
N#CCN1CCN(Cc2ccccc2)CC1	50
Clc1ccc(-c2ccccc2)c(Cl)c1	24
Cc1cc(C(F)(C(F)(F)F)C(F)(F)F)ccc1NC(=O)c1cccc(I)c1C(=O)NC(C)(C)CS(C)(=O)=O	219.1
Cc1nnc2n1-c1ccc(Cl)cc1C(c1ccccc1Cl)=NC2	234
O=C(CCl)Nc1ccc(O)cc1	146
CN1CCC(n2nccc2N)CC1	99
Clc1ccc(Cl)c(-c2ccccc2)c1Cl	56
CC(C)(C)N(NC(=O)c1ccccc1)C(=O)c1ccccc1C(F)(F)F	172
CNC(=O)NC(=O)CCl	156
NC(C(=O)O)c1ccc(Cl)cc1 (stereo not drawn)	220
C[C@]12CC=C3[C@@H](CC[C@@]45CC6(CC[C@@]34O5)OCCO6)[C@@H]1CCC2=O	120
O=C(O)c1cccc(S(=O)(=O)F)c1	153
CC(C)=CC(=O)O[C@@H]1CC(C)(C)C[C@H]2C3=CC[C@@H]4[C@@]5(C)CCC(=O)C(C)(C)[C@@H]5CC[C@@]4(C)[C@]3(C)CC[C@@]12C(=O)O	302
CC(CC(=O)OOC(=O)CC(C)CC(C)(C)C)CC(C)(C)C (stereo not drawn)	-75.4

Extract of 6 entries:

SMILES	mp (°C)
Cc1nnc2n1-c1ccc(Cl)cc1C(c1ccccc1Cl)=NC2	234
N#CCN1CCN(Cc2ccccc2)CC1	50
CNC(=O)NC(=O)CCl	156
C/[N+]([O-])=N/CO[C@@H]1O[C@H](CO)[C@@H](O)[C@H](O)[C@H]1O	154
CC(=O)C=Cc1ccc2c(c1)OCO2	111
Cc1cccc(NC(=O)CCl)c1	129

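These are experimental values that the OPERA curators gathered from public databases to train and test their QSAR models. A listed value is a point estimate from one report or more. Method and conditions are not stated for these values. The measured form (salt, isomer or mixture) is not always the one drawn. Some upstream entries may be estimates or bounds without being marked so.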